Protein sequences, listed by entry. Tags and fused reporters are not part of them.
UniProt P13516, whole entry: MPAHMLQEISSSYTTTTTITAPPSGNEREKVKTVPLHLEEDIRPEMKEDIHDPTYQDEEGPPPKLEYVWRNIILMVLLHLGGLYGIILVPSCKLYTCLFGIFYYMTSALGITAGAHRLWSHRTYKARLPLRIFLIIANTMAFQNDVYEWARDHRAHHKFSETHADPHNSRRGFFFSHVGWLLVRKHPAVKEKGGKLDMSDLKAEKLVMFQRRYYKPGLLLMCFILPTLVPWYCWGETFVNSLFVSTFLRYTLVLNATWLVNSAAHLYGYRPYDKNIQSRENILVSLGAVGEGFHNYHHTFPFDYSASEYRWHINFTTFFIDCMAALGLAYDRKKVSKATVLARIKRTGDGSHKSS

In US9296711B2, “Substituted isoxazole amide compounds as inhibitors of stearoyl-CoA desaturase 1 (SCD1)” (Hoffman-La Roche Inc., priority 2012, dated 2016):

Target: SCD1 (Mus musculus, UniProt P13516)
Assay: SCD assay: release of tritiated water from desaturation of 9,10-3H-stearoyl CoA by mouse liver microsomes
Conditions: read-out: IC50 (in vitro inhibition of SCD1); mouse liver microsomes as SCD source; 300 nM (9,10)3H-stearoyl CoA; 25 minutes at room temperature
Source text: Stearoyl CoA desaturase activity was monitored by a modification of the acyl carrier protein assay described by B. R. Talamo and K. Bloch in Anal. Biochem. 1968, 29, 300-304. The SCD assay monitors the release of tritiated water from the desaturation of 9,10-^3H-stearoyl CoA.
Mouse liver microsomes, prepared from mice fed a high-carbohydrate diet, were a source of the SCD and cyt b5 and cyt b5 reductase, necessary accessory proteins for the coupled reaction. Reaction mixtures for compound titrations contained 50 mM Tris HCl pH 7.5, 100 mM NaCl, 0.165 mg/ml BSA, 2.4% DMSO, 1 mM NADH, 0.03% T-20, and 300 nM (9,10)^3H-stearoyl CoA (Perkin-Elmer). Reactions were initiated upon the addition of 4 ug/ml SCD microsomes. Incubations were terminated after 25 minutes at room temperature with cold 6% TCA. After standing 10 minutes at 4° C., samples were centrifuged 15 minutes at 4000 rpm to pellet precipitated protein. Supernatants were added to microtiter plates containing suspensions of activated charcoal (Darco G-60, Fisher Scientific) and mixed by inversion. […] Supernatants were quantitated in a Perkin Elmer Topcount 384 after solubilization in ScintiSafe Plus 50% (Fisher Scientific).
Inhibition (%) of SCD activity by compounds was calculated according to the following formula: % Inhibition=100*[1−(CPMsample−CPMblank)/(CPMtotal−CPMblank)]

SMILES: NC(=O)c1cc(-c2ccc(COc3ccccc3Cl)cc2)no1
- IC50: 100 nM
